How the values were obtained:
in vivo = details: mouse, ip
human EGF-R = target: T1, human EGF-R (Homo sapiens, UniProt P00533); assay: EGF-R whole cell kinase assay (EGF-R-3T3 ELISA); assay type: cell-based
T1 construct: expressed in transfected cells; host or cells: NIH3T3 clone C7 (mouse fibroblasts)

By UniProt entry, the sequences of proteins in these tests, tags left out. Residues count along the entry.
UniProt P00533, 25-1210: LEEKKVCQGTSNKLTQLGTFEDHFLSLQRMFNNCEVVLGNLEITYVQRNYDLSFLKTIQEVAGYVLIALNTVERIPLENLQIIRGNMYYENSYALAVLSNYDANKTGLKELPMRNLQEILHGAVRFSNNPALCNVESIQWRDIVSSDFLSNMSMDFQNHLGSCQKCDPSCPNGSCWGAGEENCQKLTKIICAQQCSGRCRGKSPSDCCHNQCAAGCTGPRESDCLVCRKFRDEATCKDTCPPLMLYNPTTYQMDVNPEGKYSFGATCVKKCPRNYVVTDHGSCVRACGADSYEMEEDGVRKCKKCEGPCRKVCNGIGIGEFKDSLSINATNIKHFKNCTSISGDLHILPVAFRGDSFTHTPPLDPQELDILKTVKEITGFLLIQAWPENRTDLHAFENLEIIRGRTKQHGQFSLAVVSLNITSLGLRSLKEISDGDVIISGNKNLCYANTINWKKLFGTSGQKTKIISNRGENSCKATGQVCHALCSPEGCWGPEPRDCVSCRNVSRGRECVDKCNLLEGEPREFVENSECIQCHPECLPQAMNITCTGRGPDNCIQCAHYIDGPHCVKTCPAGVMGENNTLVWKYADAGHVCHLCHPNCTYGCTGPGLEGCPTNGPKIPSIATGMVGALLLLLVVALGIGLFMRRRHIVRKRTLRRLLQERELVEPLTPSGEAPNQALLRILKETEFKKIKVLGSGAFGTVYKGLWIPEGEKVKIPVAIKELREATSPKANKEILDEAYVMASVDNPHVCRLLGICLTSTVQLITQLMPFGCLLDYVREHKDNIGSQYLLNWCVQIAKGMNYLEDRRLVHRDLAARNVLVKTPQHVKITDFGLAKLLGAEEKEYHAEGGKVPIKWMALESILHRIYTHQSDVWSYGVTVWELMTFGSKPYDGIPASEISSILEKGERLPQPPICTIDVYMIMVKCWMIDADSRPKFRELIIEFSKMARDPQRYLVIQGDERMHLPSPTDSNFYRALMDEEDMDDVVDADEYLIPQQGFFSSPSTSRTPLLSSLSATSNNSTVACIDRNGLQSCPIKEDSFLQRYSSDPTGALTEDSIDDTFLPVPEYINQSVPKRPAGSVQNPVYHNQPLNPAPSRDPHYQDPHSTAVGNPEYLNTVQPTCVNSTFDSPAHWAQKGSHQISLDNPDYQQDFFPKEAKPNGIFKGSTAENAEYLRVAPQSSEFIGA

| SMILES | LD50 at 168 h (in vivo) [mg/kg] | LD10 (in vivo; 10080 min) [mg/kg] | IC50 (human EGF-R) [µM] |
| --- | --- | --- | --- |
| COc1cc2ncnc(Nc3cccc(Br)c3)c2cc1OC [A1, 4-(3-Bromophenylamino)-6,7-dimethoxyquinazoline] | ~300 | 75 | – |
| COc1cc2ncnc(Nc3cccc(Cl)c3)c2cc1OC [A2, 4-(3-Chlorophenylamino)-6,7-dimethoxyquinazoline] | – | – | < 0.015 |

From patent US6004967A, “Psoriasis treatment with quinazoline compounds” (priority 1997, dated 1999)
